This is a selection; strong and weak results do not stand in their true shares. Calls of active or inactive are those of the source. Rule as the data show it: active = activity change below about -85%; inactive = the rest.

The subject of this assay is intestinal alkaline phosphatase [Mus musculus]. Description: mouse intestinal phosphatase enzyme activation – biochemical, luminescence, single concentration, confirmation (AID 434970). As to conditions: purified mouse IAP, CDP-Star luminescence, 30 min; at 10 µM; stronger effect = lower value.
With `C[N+]1=C2C=CC=CC=C2SC12C([N+](=O)[O-])=CC([N+](=O)[O-])=C[C-]2[N+](=O)[O-]` (centres undefined), the activity change, negative = activation is inactive: 74.9%.

`O=[N+]([O-])c1cc([N+](=O)[O-])c(-c2ccn[nH]2)s1`: the activity change, negative = activation was inactive: 68.5%.

`O=C(COc1ccccc1)OC1CN2CCC1CC2` (centres undefined): the activity change, negative = activation is inactive: 14.2%.

On to `O=P1(Nc2ccccn2)COc2ccccc2OC1`, for which the activity change, negative = activation is inactive: -6.55%.
